Experimental data from US8952128B2, “Somatostatin-dopamine chimeric analogs” (priority 2012, dated 2015).

Sequences of proteins named here, by UniProt entry; tags and fusion partners are left off. A change or cut given only in a name is not applied to a line headed by its entry.
UniProt P30874: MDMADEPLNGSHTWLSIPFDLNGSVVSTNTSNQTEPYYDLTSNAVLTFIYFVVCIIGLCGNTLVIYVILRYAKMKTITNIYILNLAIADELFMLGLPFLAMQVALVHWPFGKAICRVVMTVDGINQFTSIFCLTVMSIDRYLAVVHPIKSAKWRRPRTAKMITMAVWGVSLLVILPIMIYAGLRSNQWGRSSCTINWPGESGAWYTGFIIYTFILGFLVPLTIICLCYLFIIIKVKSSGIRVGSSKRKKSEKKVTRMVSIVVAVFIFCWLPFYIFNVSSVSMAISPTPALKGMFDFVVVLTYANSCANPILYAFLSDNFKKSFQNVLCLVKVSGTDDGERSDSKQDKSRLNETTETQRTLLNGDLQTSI

Key:
hSSTR2 = hSSTR2 (Homo sapiens (Human), UniProt P30874); experiment: Intracellular calcium mobilization assay (FLIPR Calcium 4), hSSTR2; assay type: cell-based;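 further: agonist activity read as intracellular calcium rise in cells expressing human SSTR2, loaded with a calcium-sensitive dye for 60 min at 37 °C, measured by FLIPR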
hDRD2 = hDRD2 (Homo sapiens (Human), UniProt P14416); assay type: cell-based; conditions: read-out: hDRD2 EC50 (nM) ± SEM; calcium mobilization

`C[C@@H](O)[C@@H]1NC(=O)[C@H](CCCCN)NC(=O)[C@@H](Cc2c[nH]c3ccccc23)NC(=O)[C@H](Cc2ccncc2)NC(=O)[C@H](Cc2ccccc2)NC(=O)[C@H](CCCNC(=N)N)NC(=O)[C@H](NC(=O)CSC[C@@H]2C[C@@H]3c4cccc5[nH]cc(c45)C[C@H]3N(C)C2)CCCCNC(=O)[C@H](Cc2ccccc2)NC1=O` [Compound 24, Dop1-cyclo(DLys-Arg-Phe-4Pal-DTrp-Lys-Thr-Phe)] was tested, and the EC50 (hSSTR2) was 0.0031 ± 0.0002 µM and the Emax (hSSTR2; read-out: hSSTR2 % Emax ± SEM) was 91.7 ± 7.6%.
“Dop1-cyclo(DLys-Arg-Phe-Phe-DTrp-Lys-Thr-Phe) [Compound 44]” showed an EC50 (hDRD2) of 232 ± 33.1 nM.
